Laboratory results published in US20230406885A1, “CYCLIC PEPTIDES FOR TRAPPING INTERLEUKIN-1 BETA” (MERCK SHARP & DOHME LLC, priority 2022, published 2023).

By UniProt entry, the sequences of proteins in these tests, tags left out. Residues count along the entry.
UniProt P01584, 117-269 limits assumed: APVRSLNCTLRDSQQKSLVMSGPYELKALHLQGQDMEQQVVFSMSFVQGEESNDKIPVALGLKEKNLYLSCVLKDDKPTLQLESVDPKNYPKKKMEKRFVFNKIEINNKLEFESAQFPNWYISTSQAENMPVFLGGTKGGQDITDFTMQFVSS

Molecular target: Recombinant human IL-1β (Homo sapiens, UniProt P01584)
Test: IL-6 assay in MRC5 cells: inhibition of IL-1β induced IL-6 secretion (AlphaLISA)
Settings: read-out: MRC5 IC50; inhibition of IL-1β induced IL-6 secretion in MRC5 cells; IL-1β pre-incubated 1 hour with compound
Description: Procedure for IL-6 Assay in MRC5 Cells
The inhibition of IL-1β induced IL-6 secretion was evaluated in MRC5 cells. Recombinant human IL-1β (BioLegend 579404) at 2×EC80 concentration was prepared in seeding medium, EMEM (ATCC 30-2003) with 0.025% BSA (Sigma A9576), 1× penicillin/streptomycin (Gibco 15070-063), 1×NEAA (Gibco 11140-050), 1× GlutaMax (Gibco 35050-061), and 1× sodium pyruvate (Gibco 11360-070). 20 μL of IL-1β was added to a 384-well collagen-coated plate (Corning 354664) and pre-incubated at ambient temperature for 1 hour with 200 nL of compound dispensed using an ECHO 555 liquid handler. Human lung fibroblast MRC5 cells (ATCC CCL-171) were added at a density of 3000 cells/20 μL per well. […] The AlphaLISA plate was read on an EnVision multimode plate reader (Perkin Elmer model 2104) using the AlphaScreen setting (laser exc at 680 nm and emis at 570 nm). Dose response curves and IC50 values were analyzed using a 4-parameter logistic equation in Spotfire software (Tibco, Palo Alto, CA).

IC50: 464 pM
Compound: CC(=O)NCCOc1ccc(C[C@@H]2NC(=O)[C@H](CCc3ccc(O)cc3)NC(=O)C(C)(C)NC(=O)[C@H](CC(C)C)NC(=O)[C@H](Cc3cccc4ccccc34)NC(=O)[C@H](Cc3ccc(-c4ccc(C(=O)O)cc4)cc3)NC(=O)CNC(=O)[C@@H](C)N(C)C(=O)[C@H](CC(=O)O)NC(=O)[C@H]([C@@H](C)c3c[nH]c4cccc(Cl)c34)NC(=O)[C@@H]3C[C@@H](N)CN3C(=O)CNC(=O)[C@H](Cc3ccc(C(=O)O)cc3)NC(=O)[C@H](Cc3c[nH]c4ccccc34)NC2=O)cc1
